Experimental findings from patent US20220010258A1, “DEVICE THAT CAN SERVE AS A HEMATO-ENCEPHALITIC BARRIER MODEL” (priority 2017, published 2022) are described below.

The subject of data set [1] is device AD (endothelial cells and pericytes from APPswePS1dE9 mice).
For data set [2], the system named is cryopreserved 24-well format device (murine HEB model).
Data set [3] relates to BBB Kit (RBT-24H) from Pharmaco-Cell, primary HEB model from rat brain cells.

In the case of FITC-dextran, the “permeability of the device AD higher as compared to the device WT” value in data set [1] came out at 46%. Further, in data set [2], the coefficient of permeability is 6-20 10^−6 cm/s and the permeability coefficient is reported as 3.278±0.925 10^−6 cm/s. The “factor by which impermeability is better on the device of the invention compared to the commercially available model” value in data set [3] was 6.7.
